# Values quoted from earlier work, collected in publication PMC11599114 (Viruses, 2024).
# What was measured:
# Parameters in all cases: method as in ref 35216177
# HSV-1 = details: HSV-1, Vero
# Measles virus(MeV) = details: VERO/hSLAM
# HSV-2 = details: HSV-2, Vero
# HPIV-3 = details: HPIV-3, Vero
# HCoV-229E = details: Vero
Substance,IC50 (HSV-1),IC50 (Measles virus(MeV)),IC50 (HSV-2),also measured
FVPWFSKFlXRILC [DRAVPe00389],6.4 µM,39.1 µM,–,–
FVPWFSKFlkRIL [DRAVPe00384],3.53 µM,–,2.8 µM,–
FVPWFSKFlpRIL [DRAVPe00379],> 50 µM,–,> 50 µM,IC90 (HSV-1): > 50 µM; IC90 (HSV-2): > 50 µM
FVPWFSKFlPRIL [DRAVPe00378],7.7 µM,–,9.83 µM,–
FVPWFSKFlXRIL [DRAVPe00380],7.73 µM,–,9.61 µM,IC50 (HPIV-3): > 50 µM; IC90 (HPIV-3): > 50 µM
CGGFVPWFSKFlXRIL [DRAVPe00392],2.32 µM,28.9 µM,–,–
FVPWFSKFlXRILGGC [DRAVPe00390],9.54 µM,40.9 µM,–,–
FVPWFSKFlWRIL [DRAVPe00385],3.01 µM,–,0.77 µM,–
CFVPWFSKFlXRIL [DRAVPe00391],0.89 µM,22.3 µM,–,–
FVPWFSKFlxRIL [DRAVPe00382],3.65 µM,–,3.13 µM,IC50 (HPIV-3): > 50 µM; IC90 (HPIV-3): > 50 µM
FVPWFSKFlGRIL [DRAVPe00377],9.99 µM,–,8.86 µM,IC50 (HCoV-229E): 7.76 µM
FVPWFSKFlKRIL [DRAVPe00383],2.49 µM,–,1 µM,–
FVPWFSKFlwRIL [DRAVPe00386],1.86 µM,–,0.58 µM,–
